In PubChem BioAssay AID2384 (Southern Research Specialized Biocontainment Screening …, 2010) one finds IC50 data, which are given here for five compounds.

In this experiment the test system is S. typhi GFP reporter counter-screen, fluorescence, 4 h. Kind of experiment: inhibitors in S. typhi counter-screen strain, dose response, counter-screen for PhoP regulon inhibitor project, fluorescence, 4 h (AID 2384). (In general: The purpose of a counterscreen is to sort out artefacts and off-target activity.)
In the case of `O=C(N/N=C/c1ccc([N+](=O)[O-])o1)C1CC1`, the IC50 was 36.3 µM. The same measure for `O=C(NNC(=S)Nc1ccc(Cl)c(Cl)c1)c1ccccn1`: 13.6 µM; for `O=C(Nc1cccnc1)c1ccc([N+](=O)[O-])o1`: 44.3 µM. `CCOC(=O)c1cn(CC)c2cc(N3CCN(C)CC3)c(F)cc2c1=O`: the IC50 was 128 µM. The same measure for `CC(C)(C)c1nnc(N/N=C/c2cc(Br)ccc2O)n(N)c1=O`: 76.1 µM.

The term IC50 denotes the concentration that inhibits the measured activity by half.
